## Antibody variant affinities, Ab-14 light chain, assay 1

Target peptide (SARS-CoV-2 spike, HR2 region): PDVDLGDISGINAS

The variants keep the heavy chain, the linker and the frameworks of Ab-14 (scFv order VH, three GGGGS repeats, VL).
VH: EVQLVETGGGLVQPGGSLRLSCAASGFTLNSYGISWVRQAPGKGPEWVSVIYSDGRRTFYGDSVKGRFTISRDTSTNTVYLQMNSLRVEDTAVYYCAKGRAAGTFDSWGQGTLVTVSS
VL: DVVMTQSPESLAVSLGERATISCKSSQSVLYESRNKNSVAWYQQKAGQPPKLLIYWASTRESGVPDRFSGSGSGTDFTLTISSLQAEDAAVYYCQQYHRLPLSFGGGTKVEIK

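The parent was found by panning a naive human phage display library on the peptide. In library AAYL50, one, two or three CDR residues were substituted; doubles and triples were drawn at random. In AlphaSeq, yeast of one mating type display the scFv and yeast of the other type display the target. Pairs that bind mate more often; barcode pairs of the diploids are counted by sequencing. A regression on co-assayed BCL2-family reference pairs converts the normalised counts of each replicate to an apparent Kd. Mating was done three times.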

The parent's light chain CDRs are KSSQSVLYESRNKNSVA, WASTRES, QQYHRLPLS; each variant's own CDRs replace them letter for letter. Numbers give log10(Kd / nM), so 0 is 1 nM and 3 is 1 µM. Smaller is tighter. The mean shown is taken over the replicates in which the pair was detected. A pair that was not seen in that replicate is written "nd"; this usually means weak binding, but a binder can also be missed. Empty control strains, which show no peptide, gave a signal in 18% of pairings with library AAYL50; the median was 4.19 and 95% of these signals were weaker than 2.99. No background was subtracted. For each scFv, signals with the empty controls are counted beside the result, with their mean in brackets.

| CDR-L1 | CDR-L2 | CDR-L3 | replicates, log10 nM | mean log10 Kd (nM) | control signals |
|---|---|---|---|---|---|
| KSSQSVLYESRNYNWVA | WASTRES | IQYHRLPLS | nd / 2.73 / nd | 2.73 | 1 of 9 (4.10) |
| KSSQSVLYESRHKNSVA | WASTRES | QAYHRLPFS | 2.42 / 2.45 / 2.71 | 2.52 | 3 of 9 (4.90) |
| KCSQSVLYESRNKNSVA | WASTRHS | QQYHRLPLS | 5.65 / nd / 4.19 | 4.92 | 0 of 9 |
| KSSWSVLYESRNKNSVA | CASGRES | QQYHRLPLS | 3.55 / 3.02 / nd | 3.28 | 5 of 9 (3.44) |
| CSSQSVLRESRNKNSVA | WASTRES | QQYHRLPLL | 4.02 / 2.55 / 3.34 | 3.30 | 0 of 9 |
| KSSQSVLYESRNKNSVA | WYSTRES | IIYHRLPLS | nd / nd / nd | nd | 0 of 9 |
| KSLQSVLYESRNKNSVA | WASTRES | QCYHRLPLW | nd / nd / nd | nd | 1 of 9 (3.35) |
| KSSQSVLYESRNKNSVA | WASWRES | QQYLRLPLS | 2.52 / 2.78 / 3.94 | 3.08 | 3 of 9 (3.95) |
| KSVQSVLYESRNKNSVA | WASTRES | RQYHRLPLS | 6.47 / 3.43 / 4.92 | 4.94 | 8 of 9 (4.27) |
| KSSQSVLFESRNKNSVA | CASTRES | PQYHRLPLS | 1.70 / 1.47 / 2.00 | 1.72 | 1 of 9 (4.43) |
| KHSQSVLYESRNKNSVA | WASTREA | QQYNRLPLS | 0.75 / 0.93 / 0.94 | 0.87 | 1 of 9 (4.03) |
| KSSQSNLYEDRNKNSVA | WASTREW | QQYHRLPLS | nd / nd / nd | nd | 0 of 9 |
| KSSQSVLYESRNKNSVA | AAHTRES | QMYHRLPLS | 0.83 / 1.09 / 0.99 | 0.97 | 7 of 9 (4.20) |
| KSSQSVLYESRNKNSTA | WASTRES | QQYHRIPLS | 3.51 / nd / nd | 3.51 | 2 of 9 (4.13) |
| KSSQSVLYESRNKWSVA | WASTRES | QQYHRLPLC | 3.66 / 2.77 / 3.15 | 3.19 | 4 of 9 (3.85) |
| KSSQSVLYESRMKNVVA | WASTRES | QQYHRLPYS | nd / nd / nd | nd | 1 of 9 (4.05) |
| KSSQSVSYESRNKNSVA | WASNRTS | QQYHRLPLS | 1.30 / 1.47 / 1.43 | 1.40 | 2 of 9 (4.05) |
| KYSQSVLYESRNKNSVA | WASTAES | QVYHRLPLS | nd / nd / nd | nd | 0 of 9 |
| KSCQSVLYESRNKNSVA | WASTRHS | QAYHRLPLS | 3.75 / nd / 3.42 | 3.58 | 3 of 9 (4.37) |
| KSSQWVLYESRNKNSVA | MASTRES | QQYHRFPLS | 0.66 / 1.16 / 0.92 | 0.91 | 0 of 9 |
| KSSQSVTWESRNKNSVA | WASTRES | QQYHRLPSS | 0.81 / 1.04 / 1.07 | 0.98 | 0 of 9 |
| KSSQSVLYESRNYNSVA | WASTRES | QQYHRKPLS | 1.38 / 1.63 / 1.53 | 1.51 | 2 of 9 (3.59) |
| KSSQSVLYEYRNKNSVV | WASDRES | QQYHRLPLS | nd / 3.73 / nd | 3.73 | 2 of 9 (4.15) |
| KSSQSVLYESRNKNSVA | WASTRES | QQYLRLPSS | 0.73 / 0.96 / 0.46 | 0.72 | 0 of 9 |
| KSSNSVLYESRNKNSVA | WASTRES | QWYHRLPLW | 1.53 / 1.68 / 1.52 | 1.58 | 1 of 9 (5.88) |
| KSSQSVLYESRNKCSVA | WAYTRES | QQYHRLFLS | nd / nd / nd | nd | 2 of 9 (3.41) |
| ESSQSVLYESRYKNDVA | WASTRES | QQYHRLPLS | 3.55 / 3.39 / 3.98 | 3.64 | 4 of 9 (4.53) |
| KSSMSVGYESRNKNSVA | WASTRES | QQYHRLPCS | 5.82 / 3.56 / nd | 4.69 | 1 of 9 (4.77) |
| KGSQSVLYESRNKNSVA | WASTREL | QQYFRLPLS | 0.95 / 1.17 / 1.17 | 1.10 | 1 of 9 (4.77) |
| KSSQSVLYISRNKNSVA | WACTRES | QQYHRLPLS | nd / 3.99 / nd | 3.99 | 0 of 9 |
| KSSQSVLYRSRNKNSVA | WASTREI | QQYHALPLS | 3.05 / 2.53 / 2.28 | 2.62 | 1 of 9 (4.74) |
| KSSQSVLYEDRNKNSVA | WLSTRES | QQYHHLPLS | nd / nd / nd | nd | 0 of 9 |
| KSTQSVLYESRNKNGVA | WASYRES | QQYHRLPLS | nd / nd / 3.28 | 3.28 | 1 of 9 (4.80) |
| KSSQSVLYESRNKNSVA | WASTRIS | QQYDRLPLS | 1.40 / 1.54 / 1.59 | 1.51 | 4 of 9 (3.83) |
| KSSQSVLYESRNKNSVL | WASWRES | QQYHRVPLS | nd / nd / nd | nd | 1 of 9 (3.90) |
| KESQSVLWEFRNKNSVA | WASTRES | QQYHRLPLS | 2.18 / 1.89 / 2.65 | 2.24 | 0 of 9 |
| KSSQSVLYNSRNKNSVD | WASTRES | QQGHRLPLS | nd / 3.90 / nd | 3.90 | 2 of 9 (2.57) |
| KSSYSVLYESRNKNSVA | WASTRES | QHYHRLYLS | nd / nd / nd | nd | 0 of 9 |
| KASQSVLYESRNKNSVG | WASTRES | QQYHRLPLV | 5.02 / nd / 6.12 | 5.57 | 2 of 9 (4.16) |
| KSSQSVLYESRNKNSVA | WASTRES | QAYHRLPLS | 1.20 / 1.34 / 1.33 | 1.29 | 3 of 9 (4.37) |
| KSSQSQLYESRNKNSVA | WHSTRES | QQYHRLPLS | nd / nd / nd | nd | 0 of 9 |
| KSSQSVLMESRNCNSVA | KASTRES | QQYHRLPLS | 0.32 / 0.43 / 0.27 | 0.34 | 2 of 9 (4.21) |
| KSVQSVLYESRNKNSVA | WASTRES | AQYHRLPLS | 3.35 / 2.62 / 2.78 | 2.92 | 2 of 9 (4.55) |
| KSSQSVLYESRNKNSIA | WASTRES | QQYHRLPLS | 0.78 / 0.93 / 0.87 | 0.86 | 0 of 9 |
| KISQSVLYESRNKNSVA | CACTRES | QQYHRLPLS | 3.15 / nd / 2.98 | 3.06 | 0 of 9 |

Extract of 7 entries:

CDR-L1,CDR-L2,CDR-L3,"replicates, log10 nM",mean log10 Kd (nM),control signals
KESQSVLWEFRNKNSVA,WASTRES,QQYHRLPLS,2.18 / 1.89 / 2.65,2.24,0 of 9
KSSQSNLYEDRNKNSVA,WASTREW,QQYHRLPLS,nd / nd / nd,nd,0 of 9
KSSQSVLYESRNKNSVA,WASTRIS,QQYDRLPLS,1.40 / 1.54 / 1.59,1.51,4 of 9 (3.83)
KSSQSVLFESRNKNSVA,CASTRES,PQYHRLPLS,1.70 / 1.47 / 2.00,1.72,1 of 9 (4.43)
KSSQSVLYEDRNKNSVA,WLSTRES,QQYHHLPLS,nd / nd / nd,nd,0 of 9
KSSQSVLYESRNYNSVA,WASTRES,QQYHRKPLS,1.38 / 1.63 / 1.53,1.51,2 of 9 (3.59)
KSSQSVLMESRNCNSVA,KASTRES,QQYHRLPLS,0.32 / 0.43 / 0.27,0.34,2 of 9 (4.21)

Data: MIT Lincoln Laboratory AlphaSeq set, Engelhart et al. 2022, doi:10.1038/s41597-022-01779-4, as distributed in FLAb.